For one experiment, the system named is BAE cells. The experiment is described as follows: Antiproliferative activity on BAE cells (MTT, 72 hours screen). The following applies: for Fold Increase: IC50(GSAO)/IC50(GSAO Analogue); for IC50: read-out: IC50 (μM)*, proliferation of BAE cells, MTT, DMEM 10% FBS.
In another experiment the target is MPTP (Rattus norvegicus, UniProt Q09073). The experiment is described as follows: MPTP induction screening (swelling of frozen rat liver mitochondria, 520 nm). The experiment is classed as biochemical. Conditions: Swelling Rate(GSAO Analogue)/Swelling Rate(GSAO).

Chains of the proteins cited; added tags and fusions are not shown. Residues count along the entry.
UniProt Q09073, 2-298 limits assumed: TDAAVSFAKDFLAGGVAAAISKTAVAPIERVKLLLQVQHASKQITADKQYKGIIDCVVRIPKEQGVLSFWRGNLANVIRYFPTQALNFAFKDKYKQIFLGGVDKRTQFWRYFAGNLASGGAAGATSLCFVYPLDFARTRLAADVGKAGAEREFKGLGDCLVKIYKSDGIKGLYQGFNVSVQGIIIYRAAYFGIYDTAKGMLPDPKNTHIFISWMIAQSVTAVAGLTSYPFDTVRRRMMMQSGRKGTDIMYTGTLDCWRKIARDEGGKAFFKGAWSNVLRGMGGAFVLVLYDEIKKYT

In general, IC50 refers to the concentration needed to halve the response being measured. “retro-HO-Cys-(CH2CONHC6H4-p-As{OH}2)-carbonyl-Glu-OH”: in the experiment with BAE cells (BAE proliferation, 4 vs 3, 22 vs 7, 23 vs 8), the “times more active than the corresponding p-arsenoxide analogue” value is reported as “approximately 140 times”. Also, in the experiment on BAE cells, the “Fold Increase” value came to 9.9 and the IC50 is 0.84 µM. For the same compound, the “MPTP Swelling Rate Increase/GSAO* Mean” value on MPTP came to 5.6.
Regarding `O=C(CSCC(O)CO)Nc1ccc([As](O)O)cc1` (stereo not shown), in the experiment on BAE cells, the “Fold Increase” value is recorded as 1.1 and the IC50 was 7.6 µM. In addition, the “MPTP Swelling Rate Increase/GSAO* Mean” value on MPTP turned out to be 1.3.

(Values after patent US9353152B2, “Induction of the mitochondrial permeability transition” (NewSouth Innovations Pty Limited, priority 2002, dated 2016).)
